Data taken from PMC4516653 (European journal of pharmaceutical sciences : official …, 2015).

By UniProt entry, the sequences of proteins in these tests, tags left out.
UniProt P33261, whole entry: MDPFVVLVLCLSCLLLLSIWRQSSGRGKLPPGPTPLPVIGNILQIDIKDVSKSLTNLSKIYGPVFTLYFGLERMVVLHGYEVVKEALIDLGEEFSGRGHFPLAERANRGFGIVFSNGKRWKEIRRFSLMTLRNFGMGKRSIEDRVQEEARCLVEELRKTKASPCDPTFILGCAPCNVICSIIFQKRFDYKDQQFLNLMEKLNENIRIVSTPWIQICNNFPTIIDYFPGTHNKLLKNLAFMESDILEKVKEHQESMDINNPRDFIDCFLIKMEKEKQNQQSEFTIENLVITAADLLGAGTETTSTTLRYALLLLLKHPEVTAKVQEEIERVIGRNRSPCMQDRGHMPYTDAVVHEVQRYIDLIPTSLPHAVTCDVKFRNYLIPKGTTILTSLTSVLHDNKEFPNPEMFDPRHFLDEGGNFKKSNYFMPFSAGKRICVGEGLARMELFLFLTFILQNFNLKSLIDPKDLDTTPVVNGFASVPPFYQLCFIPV

Biological target: CYP2C19 (Homo sapiens, UniProt P33261)
Experiment: CYP inhibition assay in human liver microsomes
Type: in vitro ADME

O=C(/C=C/C=C/c1ccc2c(c1)OCO2)N1CCCCC1 [Pip, piperine]
IC50: 22 µM
